From ChEMBL document CHEMBL1124741, “Probes for narcotic receptor mediated phenomena. 17. Synthesis and evaluation of a series of trans-3,4-dichloro-N-methyl-N-[2-(1-pyrrolidinyl)cyclohexyl]benzeneacet amide (U50,488) related isothiocyanate derivatives as opioid receptor affinity ligands” (1990)

The chains behind the UniProt entries cited, without tags or fusion partners.
UniProt P41144, whole entry: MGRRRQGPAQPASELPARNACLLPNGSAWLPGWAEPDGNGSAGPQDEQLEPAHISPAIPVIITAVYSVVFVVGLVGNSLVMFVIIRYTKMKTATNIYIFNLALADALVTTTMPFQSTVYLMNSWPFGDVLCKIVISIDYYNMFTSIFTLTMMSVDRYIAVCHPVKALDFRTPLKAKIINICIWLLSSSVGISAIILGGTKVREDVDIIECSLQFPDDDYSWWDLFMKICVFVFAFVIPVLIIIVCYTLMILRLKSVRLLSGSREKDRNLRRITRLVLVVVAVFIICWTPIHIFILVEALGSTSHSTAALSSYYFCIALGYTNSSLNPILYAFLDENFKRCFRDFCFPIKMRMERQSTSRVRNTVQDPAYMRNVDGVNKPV

Target: Kappa-type opioid receptor (Cavia porcellus) (UniProt P41144)
Test: In vitro inhibition of [3H]U-69593 binding to Opioid receptor kappa 1 of guinea pig brain.
Conditions: concentration not given here

Row | Compound | inhibition [%]
1 | CN(C(=O)[C@H](N)c1ccccc1)[C@@H]1CCCC[C@H]1N1CCCC1 | 86.5
2 | CN(C(=O)[C@H](N)c1ccccc1)[C@H]1CCCC[C@@H]1N1CCCC1 | 114
3 | CN(C(=O)[C@@H](N)c1ccccc1)[C@H]1CCCC[C@@H]1N1CCCC1 | 85.6
4 | CN(C(=O)[C@@H](N)c1ccccc1)[C@@H]1CCCC[C@H]1N1CCCC1 | 120
